Values joined by “and” are separate entries in the source; they are usually repeats but may differ in a detail not shown here. Identical values can stand only once. The list shows a part of the results, in another mix than the full data. Active and inactive are the calls of the source. Calls come from the whole dose curve; as a rule, active = well fitted inhibition curve with a large enough effect; inconclusive = small, poorly fitted or top-dose-only effect, or effect the other way; inactive = flat fitted curve, though single readings scatter.
Target: Thyroid hormone receptor beta (Homo sapiens) (UniProt P10828)
Test: qHTS for Inhibitors of the Interaction of Thyroid Hormone Receptor and Steroid Receptor Coregulator 2; note: nearly all actives have a fitted effect of over 50% in size
Conditions: TRbeta-SRC2 peptide binding, fluorescence polarization, receptor liganded with 1 µM T3; at 106 µM (top of the series) unless noted
Text: NIH Molecular Libraries Probe Production Network [MLPCN]
NIH Chemical Genomics Center [NCGC]
Assay Provider: R. Kip Guy, St. Jude Children's Research Hospital
Thyroid receptor (TR) regulates many homeostatic processes including basal metabolism, cardiovascular function, body weight, and lipid trafficking. TR modulators are potential therapeutics for obesity and hyperlipidemias but current thyroid analogs have undesirable side effects, particularly cardiac stimulation. To identify inhibitors that specifically prevent the interaction of TR with the steroid receptor coregulator 2 (SRC2), a fluorescence polarization assay was screened. This assay detects interaction of the ligand-binding domain of human TRb with a Texas Red labeled SRC2 peptide, corresponding to a 20 amino acid region of the nuclear receptor interaction domain (Arnold et al., 2006). Small molecule inhibitors that block the interaction of TR and SRC2 are detected by a decrease in fluorescence polarization.
Arnold, L. A.; Estebanez-Perpina, E.; Togashi, M.; Shelat, A.; Ocasio, C. A.; McReynolds, A. C.; Nguyen, P.; Baxter, J. D.; Fletterick, R. J.; Webb, P.; Guy, R. K. A high-throughput screening method to identify small molecule inhibitors of thyroid hormone receptor coactivator binding. Sci STKE 2006, p 13.
NCGC Assay Protocol Summary:
For screening, 5 uL/well 0.6 uM TRb and 20 nM SRC2 Texas Red in protein buffer (20mM Tris hydrochloride, 100mM NaCl, 10% glycerol, 1mM EDTA, 0.01% NP-40, 1mM DTT, 1uM T3 and 5% DMSO) was dispensed into black solid 1536-well plates (Grenier) using a solenoid-based dispenser. Following transfer of 23 nL compound or DMSO vehicle by a pin tool, the plates were centrifuged 15 s at 1000 RPM and incubated 5 hr at ambient temperature. […] Data were normalized to unbound (all components except TRb) and bound SRC2 Texas Red controls. In this assay, we provide % activity data for each concentration as well as potencies for the active compounds.
Keywords: NIH Roadmap, MLPCN, MLI, MLSMR, qHTS, NCGC, qHTS, thyroid hormone receptor, steroid receptor coactivator, fluorescence polarization

Protein sequences, listed by entry. Tags and fused reporters are not part of them. Lines headed by an entry give the natural chain unless they say otherwise; changes in a name come on top.
UniProt P10828: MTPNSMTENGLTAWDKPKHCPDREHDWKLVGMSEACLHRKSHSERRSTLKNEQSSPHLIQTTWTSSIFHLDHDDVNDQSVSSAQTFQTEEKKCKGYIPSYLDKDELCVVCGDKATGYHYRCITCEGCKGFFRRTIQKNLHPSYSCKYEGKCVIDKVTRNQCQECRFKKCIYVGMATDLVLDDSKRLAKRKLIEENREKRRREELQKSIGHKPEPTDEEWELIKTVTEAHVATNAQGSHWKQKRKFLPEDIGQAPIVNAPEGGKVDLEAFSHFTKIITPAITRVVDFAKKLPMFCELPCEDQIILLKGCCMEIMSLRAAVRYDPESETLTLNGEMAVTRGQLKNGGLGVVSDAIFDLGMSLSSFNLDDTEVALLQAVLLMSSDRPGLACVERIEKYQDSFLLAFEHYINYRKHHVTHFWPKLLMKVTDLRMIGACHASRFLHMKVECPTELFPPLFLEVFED

For `COc1cc(I)ccc1[As](=O)(O)O`, the activity change, negative = inhibition was inactive: -0.929%.
For `CCOC(=O)c1ccc(NC(=O)C(C)(CCl)SC)cc1` (stereo unspecified), the activity change, negative = inhibition was inactive: -0.327%.
`CCC(C)N(CC(C)C)C(=S)SC(NC(C)=O)C(Cl)(Cl)Cl` (stereo unspecified) was tested, and the activity change, negative = inhibition was inactive: -17.4%.
With `COP1(=S)c2c(C)nn(CCC#N)c2N=C(c2ccc(F)cc2)N1C` (stereo unspecified) the activity change, negative = inhibition was inactive: -17%.
With `CCCCO[P+](=O)OCCCC` the activity change, negative = inhibition was inactive: 4.25% [at 201 µM].
`CCOC(=O)Nc1cccc([As](=O)(O)O)c1` was tested, and the activity change, negative = inhibition was inactive: -5.31%.
For `O=P(Nc1ccccn1)(c1cccc2ccccc12)c1cccc2ccccc12`, the activity change, negative = inhibition was inactive: 3.95%.
With `Cc1cc(SC(NC=O)C(Cl)(Cl)Cl)ncn1` (stereo unspecified) the activity change, negative = inhibition was inactive: -2.46%.
For `CN(N=O)C(=N)N[N+](=O)[O-]`, the activity change, negative = inhibition was inactive: 5.87%.
With `O=[N+]([O-])c1ccc(Nc2ccc(Oc3ccc([N+](=O)[O-])cc3[N+](=O)[O-])cc2)c([N+](=O)[O-])c1` the activity change, negative = inhibition was inactive: 1.39%.
With `CCOC(=O)Nc1ccc([As](=O)(O)O)c(O)c1` the activity change, negative = inhibition was inactive: -5.27%.
For `Cc1cc(SC(NC(=O)c2ccccc2)C(Cl)(Cl)Cl)nc(C(C)C)n1` (stereo unspecified), the activity change, negative = inhibition was inactive: 7.59%.
With `O=[N+]([O-])c1ncn(CCn2ncnc2[N+](=O)[O-])n1` the activity change, negative = inhibition was inactive: 6.26%.
In the case of `CC(C)(C)C(=O)NC(Sc1ccncn1)C(Cl)(Cl)Cl` (stereo unspecified), the activity change, negative = inhibition is reported as inactive: -7.27%.
`O=C(O)CNc1ccc([As](=O)(O)O)cc1` was tested, and the activity change, negative = inhibition was inactive: -4.7%.
In the case of `O=[N+]([O-])c1cccc(NC2=NCC(CBr)S2)c1` (stereo unspecified), the activity change, negative = inhibition is reported as inactive: -1.61%.
For `O=C(Nc1cc([As](=O)(O)O)ccc1O)c1ccccc1`, the activity change, negative = inhibition was inactive: -4.02%.
`CCN(/C(=N/P(=O)(N1CCOCC1)N1CCOCC1)N1CCOCC1)c1ccc(OC)cc1` was tested, and the activity change, negative = inhibition was inactive: 0.266%.
`Nc1ccc([As](=O)(O)c2ccc(N)cc2)cc1` was tested, and the activity change, negative = inhibition was inactive: 1.17%.
In the case of `C[N+]1=C2C=CC=CC=C2SC12C([N+](=O)[O-])=CC([N+](=O)[O-])=C[C-]2[N+](=O)[O-]` (stereo unspecified), the activity change, negative = inhibition is reported as inactive: 1.95%.
For `CC1CCN(C(=O)Oc2c(Cl)cc(Cl)c3cccnc23)CC1`, the activity change, negative = inhibition was inactive: -3.07%.
`CC(=O)C1=CCCC2CCC1N2` (stereo unspecified) was tested, and the activity change, negative = inhibition was inactive: 4.42% and inactive: -8.25%.
`CC(C)=N/N=C(\N)N[N+](=O)[O-]` was tested, and the activity change, negative = inhibition was inactive: 0.392%.
`CN(C)C(=O)OCCc1n(C)cc[n+]1C` was tested, and the activity change, negative = inhibition was inactive: 1.46%.
In the case of `O=[N+]([O-])c1ccc([N+](=O)[O-])cc1`, the activity change, negative = inhibition is reported as inactive: -4.23% [at 201 µM].
For `COc1ccc(C2=NCC(CBr)S2)cc1` (stereo unspecified), the activity change, negative = inhibition was inactive: 1.14%.
In the case of `Cc1ccc(NP(=O)(Oc2ccccc2)Oc2ccccc2)nc1`, the activity change, negative = inhibition is reported as inactive: 0.299%.
`CCc1nc2c(n1)c1c(non1O)c1c2no[n+]1[O-]` was tested, and the activity change, negative = inhibition was inactive: 15.3%.
`O=[N+]([O-])c1cc([N+](=O)[O-])c(CCNc2ccccc2)c([N+](=O)[O-])c1` was tested, and the activity change, negative = inhibition was inactive: 8.3%.
`O=[N+]([O-])c1cccc2n[nH]nc12` was tested, and the activity change, negative = inhibition was inactive: -6.97%.
For `CC(=O)N1C2C3N(C(C)=O)C1C1N(C(C)=O)C(C(N1C(C)=O)N3C(C)=O)N2C(C)=O`, the activity change, negative = inhibition was inactive: -2.78%.
In the case of `Oc1ccccc1CNc1ccccn1`, the activity change, negative = inhibition is reported as inactive: 7.66%.
For `O=C(NC(Sc1ccncn1)C(Cl)(Cl)Cl)c1ccccc1` (stereo unspecified), the activity change, negative = inhibition was inactive: 4.59%.
For `Cc1c2non([O-])c-2c(C)[n+](=O)[n+]1[O-]`, the activity change, negative = inhibition was inactive: -0.629%.
With `CC(C)OP(=O)(OC(C)C)SCCNS(=O)(=O)c1ccccc1` the activity change, negative = inhibition was inactive: -4.25% [at 201 µM].
In the case of `Nc1cc(N)c2nonc2c1[N+](=O)[O-]`, the activity change, negative = inhibition is reported as inactive: 7.22%.
`CC(C)CC(=O)NC(Sc1ccc(Cl)cc1)C(Cl)(Cl)Cl` (stereo unspecified) was tested, and the activity change, negative = inhibition was inactive: 0.638%.
For `Cc1ccc(N/C(=N/P(=O)(N2CCOCC2)N2CCOCC2)N2CCOCC2)cc1`, the activity change, negative = inhibition was inactive: 0.71%.
For `NC(=O)c1cc([N+](=O)[O-])cc([N+](=O)[O-])c1N`, the activity change, negative = inhibition was inactive: -8.87%.
In the case of `CN1CCCC(OC(=O)C(c2ccccc2)c2ccccc2)C1` (stereo unspecified), the activity change, negative = inhibition is reported as inactive: -18.1%.
For `Clc1ccc(Cl)c(NC2=NCC(CBr)S2)c1` (stereo unspecified), the activity change, negative = inhibition was inactive: 1.46%.
For `COc1ccccc1OP(=O)(Nc1ccc(C)cn1)Oc1ccccc1OC`, the activity change, negative = inhibition was inactive: 3.97% [at 53 µM].
`Cc1ccc(OP(=O)(Nc2nccs2)Oc2ccc(C)cc2)cc1` was tested, and the activity change, negative = inhibition was inactive: 8.67%.
In the case of `Nc1cccc2ccc([As](=O)(O)O)cc12`, the activity change, negative = inhibition is reported as inactive: -17.8%.
`CCN(N=Nc1nonc1N)c1nonc1N` was tested, and the activity change, negative = inhibition was inactive: 0.101%.
For `O=P(Nc1nc2ccc(Cl)cc2s1)(c1ccccc1)c1ccccc1`, the activity change, negative = inhibition was inactive: -2.27%.
For `CC(=O)Nc1ccc([As](=O)(O)O)cc1`, the activity change, negative = inhibition was inactive: -7.17%.
`O=C(O)c1ccccc1[As](=O)(O)O` was tested, and the activity change, negative = inhibition was inactive: -3.72%.
In the case of `Cc1cc(SC(NC(=O)c2ccc(F)cc2)C(Cl)(Cl)Cl)ncn1` (stereo unspecified), the activity change, negative = inhibition is reported as inactive: 0.802%.
In the case of `Cc1ccc(NP(=O)(Oc2ccccc2F)Oc2ccccc2F)nc1`, the activity change, negative = inhibition is reported as inactive: -0.884%.
`O=C(OC1CN2CCC1CC2)c1ccccc1` (stereo unspecified) was tested, and the activity change, negative = inhibition was inactive: 4.12%.
